Reference: patent publication US10377677B2, “Fertilizer compositions and methods of making and using the same” (dated 2019)

Conditions: stabilizer materials each at 25 wt. %, 5 in diameter tube, 200 g booster

## Al(OH)3
  Witness Plate: perf
